Test results taken from patent publication US8722850B2, “Self-assembling peptides and their use in the formation of hydrogels” (Universita' Degli Studi di Milano Bicocca, priority 2010, dated 2014).

Assay: Macro-scale scaffold formation upon exposure to PBS / neutral pH buffer
Type: physicochemical
Settings: upon exposure to PBS (1×) / neutral pH buffer
Description: The tested peptides solutions appearance ranged from peptides giving clear liquid is solutions (e.g. 4, B15, B19, B25, B28, 30) to samples which become opaque in 1 to 7 days after dissolution (e.g. B3, B17, B22, B24, B27, 31) as shown in FIG. 2a (I). Most of the liquid solutions increased in viscosity over the first week after dissolution, however after ten days in water no appreciable changes happened at the macroscale.
Nonetheless, keeping constant the observation time, the storage moduli of peptide solutions previously dissolved (the day before) at 3% w/v were measured. Measurements were obtained of these peptide solutions, further diluted to 1% w/v at the same day of the experiment (unless otherwise specified), and, after addition of PBS, of the formed scaffolds.

For (Biotin-GGG)2-K-FSSTKT-CONH2 [B58], the “solid scaffold / hydrogel formation” value was “yielded solid scaffolds”.

With Biotin-GGG-AASSTKT-CONH2 [B40] the “solid scaffold / hydrogel formation” value was “yielded solid scaffolds”.

With Biotin-GGG-AFAAAKA-CONH2 [B44] the “solid scaffold / hydrogel formation” value was “yielded solid scaffolds”.

In the case of Biotin-GGG-AFAATKT--CONH2 [B41], the “solid scaffold / hydrogel formation” value was “yielded solid scaffolds”.

For Biotin-GGG-AFAK-CONH2 [B57], the “solid scaffold / hydrogel formation” value was “yielded solid scaffolds”.

In the case of Biotin-GGG-AFASAKA-CONH2 [B42], the “solid scaffold / hydrogel formation” value was “yielded solid scaffolds”.

For Biotin-GGG-AFASTKT-GIKVAV-CONH2 [B54], the “solid scaffold / hydrogel formation” value was “yielded solid scaffolds”.

In the case of Biotin-GGG-AFASTKT-GRGD-CONH2 [B52], the “solid scaffold / hydrogel formation” value was “yielded solid scaffolds”.

With Biotin-GGG-PFCSTKT-CONH2 [B48] the “solid scaffold / hydrogel formation” value was “yielded solid scaffolds”.

In the case of Biotin-GGG-PFSATKT-CONH2 [B46], the “solid scaffold / hydrogel formation” value was “yielded solid scaffolds”.

For Biotin-GGG-PFSCTKT-CONH2 [B47], the “solid scaffold / hydrogel formation” value was “yielded solid scaffolds”.

In the case of Biotin-GGG-PFSSAKT-CONH2 [B45], the “solid scaffold / hydrogel formation” value was “yielded solid scaffolds”.

For Biotin-GGG-PFSSTAT-CONH2 [B43], the “solid scaffold / hydrogel formation” value was “yielded solid scaffolds”.

For Biotin-GGG-PFSSTKT-GIKVAV-CONH2 [B53], the “solid scaffold / hydrogel formation” value was “yielded solid scaffolds”.

In the case of Biotin-GGG-PYSSTKT-CONH2 [B39], the “solid scaffold / hydrogel formation” value was “yielded solid scaffolds”.
